The record followed here is paper PMC12799587, “Predicting compounds that interact with the 2 known agonist-induced conformations of the human β1-adrenoceptor” (Molecular Pharmacology, 2025).

By UniProt entry, the sequences of proteins in these tests, tags left out.
UniProt P08588, whole entry: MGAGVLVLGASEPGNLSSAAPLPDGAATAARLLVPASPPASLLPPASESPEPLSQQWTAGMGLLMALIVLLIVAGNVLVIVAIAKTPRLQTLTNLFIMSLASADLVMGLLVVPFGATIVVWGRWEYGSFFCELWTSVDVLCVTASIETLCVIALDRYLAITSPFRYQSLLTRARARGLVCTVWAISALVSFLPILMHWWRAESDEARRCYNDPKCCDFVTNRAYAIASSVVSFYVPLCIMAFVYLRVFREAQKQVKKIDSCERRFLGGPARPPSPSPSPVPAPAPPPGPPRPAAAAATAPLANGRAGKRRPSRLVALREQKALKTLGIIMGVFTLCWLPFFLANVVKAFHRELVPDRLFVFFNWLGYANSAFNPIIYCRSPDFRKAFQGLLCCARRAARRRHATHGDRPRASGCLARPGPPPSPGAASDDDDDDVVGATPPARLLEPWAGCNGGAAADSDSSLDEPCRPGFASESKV

Experiment [1] addresses T1, β1-AR (Homo sapiens, UniProt P08588). Description: CRE-luciferase production in CHO-β1-CRE-luciferase cells. The settings on record: Log EC50, agonist action, given as log EC50 (negative).
For experiment [2], the target named is T1, β1-AR. Put plainly: 3H-CGP12177 whole-cell binding in CHO-β1-CRE-SPAP cells.
For experiment [3], the target named is T1, β1-AR. Description: CRE-SPAP production in CHO-β1-CRE-SPAP cells. The settings on record: EC502 (log EC50 of second component), biphasic concentration response.

The term EC50 denotes the concentration needed to bring the measured effect to its halfway point. What is called Kd is the equilibrium constant for the complex coming apart. `C=CCc1ccccc1OCC(O)CNC(C)C` (racemic) [Alprenolol, (RS)-1-(2-allylphenoxy)-3-(isopropylamino)propan-2-ol, reference compound]: the EC50 was 324 nM in experiment [1] and 363 nM in experiment [3]. Further, binding in experiment [2] was put at a Kd of 6.31 nM.
